From patent US9636342B2, “Method for treating prostate cancer” (UNIVERSITY OF SOUTH CAROLINA, priority 2012, dated 2017) come the findings set out here.

Protein sequences, listed by entry. Tags and fused reporters are not part of them. Lines headed by an entry give the natural chain unless they say otherwise; changes in a name come on top.
UniProt Q9BWU1: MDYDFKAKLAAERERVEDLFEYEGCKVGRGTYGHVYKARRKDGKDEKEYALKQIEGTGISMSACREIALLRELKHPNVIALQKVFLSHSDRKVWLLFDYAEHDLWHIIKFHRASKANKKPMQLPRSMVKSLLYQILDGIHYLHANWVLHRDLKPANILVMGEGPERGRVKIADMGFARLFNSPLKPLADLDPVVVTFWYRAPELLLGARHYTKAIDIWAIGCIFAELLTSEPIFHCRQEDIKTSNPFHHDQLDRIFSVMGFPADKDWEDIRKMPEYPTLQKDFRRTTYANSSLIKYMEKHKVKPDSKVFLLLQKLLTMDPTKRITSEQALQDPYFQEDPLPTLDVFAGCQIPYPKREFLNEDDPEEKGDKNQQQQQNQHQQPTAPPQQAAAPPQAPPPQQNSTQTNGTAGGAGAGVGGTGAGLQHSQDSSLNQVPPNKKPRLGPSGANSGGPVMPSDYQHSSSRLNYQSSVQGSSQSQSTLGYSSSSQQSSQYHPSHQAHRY

Structures are written as SMILES.

The assay has as its target CDK19 (Homo sapiens, UniProt Q9BWU1). The assay is described as follows: Senexin B inhibition of CDK19 kinase activity (Kd). Type of assay: binding. From the text:
The invention provides a method for treating prostate cancer in a subject comprising administering to the subject an effective amount of a selective inhibitor of one or more of CDK8 and CDK19. […] For purposes of the invention, “specific inhibitors of CDK8/19” are small molecule compounds that inhibit CDK8 or CDK8 and CDK19 to a greater extent than they inhibit certain other CDKs. In some embodiments, such compounds further inhibit CDK8 to a greater extent than CDK9. In preferred embodiments, such greater extent is at least 2-fold more than CDK9. Compounds that are useful in the invention are described in co-pending US Patent Publications 20120071477 and 20120071477 and PCT Publication WO2013/116786. Extent of inhibition is measured by the assays taught in co-pending PCT Publication WO2013/116786.
To test the role of CDK8/19 in AR activity, we have used selective small-molecule inhibitors of CDK8/19 developed by Senex Biotechnology, Inc. (Senex) and termed Senexin A (a.k.a. SNX2-1-53) and Senexin B (a.k.a. SNX2-1-165). Senexin A has been described in a recent article^29 and Senexin B in PCT Publication WO2013/116786. These small molecules selectively bind to the ATP pockets of CDK8/19 to inhibit their kinase activity.

By Kd is commonly meant the free concentration of one partner at which half of the binding sites on the other are occupied at equilibrium, for simple one-to-one binding. Read a low Kd as tighter binding. For the molecule `CN1CCN(C(=O)c2ccc3cc(CCNc4ncnc5ccc(C#N)cc45)ccc3c2)CC1` [Senexin B], the Kd worked out at 80 nM. In other words, the double-digit nanomolar range.
